This series is described as follows: Phase 1 relative bioavailability study: plasma pharmacokinetics of midazolam, 1-hydroxymidazolam, ketamine and norketamine. Conditions: Treatment C: midazolam 3.5 mg IV; mean. Here is the method:
PK analysis was performed using noncompartmental methods in Phoenix WinNonlin® (Version 8.1, Certara, L.P.) in conjunction with the internet-accessible implementation of the Pharsight® Knowledgebase Server™ (PKSO; Version 4.0.4, Certara, L.P). PKSO provides protected and structured storage, audit trails, and version control for study data, analyses, and related files, supporting 21 CFR Part 11 compliance. The analysis was performed in accordance with the Statistical Analysis Plan (Version 1.0, 5 Jan. 2021).
During the PK analysis, concentrations below the limit of quantitation (BLQ) up to the time of the first quantifiable concentration were treated as zero. Embedded (values between 2 quantifiable concentrations) and terminal BLQ concentrations were treated as “missing”. Calculation of the PK characteristics were based on actual elapsed times [h] (relative to time of dose).
All PK analyses were performed on the data from the PK Analysis Population. […] The ANOVA model included factors for sequence, subject within sequence, treatment, and period.

SMILES strings stand for the structures.

Consider `Cc1ncc2n1-c1ccc(Cl)cc1C(c1ccccc1F)=NC2` [Midazolam, 8-chloro-6-(2-fluorophenyl)-1-methyl-4H-imidazo[1,5-a][1,4]benzodiazepine], for which the “Tlast, midazolam” value stood at 23.4 h.
